Earlier results in patent US20030022909A1, “Use of methylnaltrexone to treat immune suppression” (University of Chicago, priority 2001, published 2003).

Conditions: in vivo; cited from earlier work

CCC(=O)N(c1ccccc1)C1(C(=O)OC)CCN(CCC(=O)OC)CC1
half-life: only several minutes

This is a selection: effects in other tests are not listed, and their absence says nothing.
